In PubChem BioAssay AID807 (SRMLSC, 2007) one finds viability increase data, which are given here for 5 compounds.

The list shows a part of the results, in another mix than the full data. Active and inactive are the calls of the source.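 The calls were made as follows: active = viability increase at or above a cutoff of the median across tested compounds plus 3 SD (cut at about 8.5% in these data, passing the limit was not always enough); inconclusive = some gains above the cutoff, reason not given; inactive = the rest.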

The assay is described as follows: doxorubicin toxicity protection in MRP-1 cells – H69AR cells, CellTiter-Glo, duplicate, MRP-1 activator project, pilot screen (AID 807).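 Also: compound pretreatment 18-22 h then 72 h combined with doxorubicin; 0% = doxorubicin alone and 100% = vehicle without doxorubicin.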 The note with it: H69AR viability with doxorubicin, CellTiter-Glo luminescence; at 10 µM; active compounds read high. (In ATP-based viability assays light output follows the ATP content of the culture.)
Consider `CP(=O)(Nc1ccc2c(c1)OCCO2)Oc1ccccc1` (stereo not given), for which the viability increase was inactive: 0.07%.
Then `CP(=O)(Oc1ccccc1)N1CCOC1=O` (stereo not given), with inactive: 0.53%.
`Cc1ccc(NP(C)(=O)Oc2ccccc2)c(C)c1` (stereo not given): the viability increase was inactive: -1.74%.
In the case of `CP(=O)(NC(=O)Nc1ccccc1)Oc1ccccc1` (stereo not given) it was inactive: -3.81%; in that of `Cc1ccc(C)c(NP(C)(=O)Oc2ccccc2)c1` (stereo not given), inactive: -2.68%.
